# Test results published in ChEMBL document CHEMBL3608278 (J Med Chem, 2015).
# Sequences of proteins named here, by UniProt entry; tags and fusion partners are left off.
# UniProt P22001, whole entry: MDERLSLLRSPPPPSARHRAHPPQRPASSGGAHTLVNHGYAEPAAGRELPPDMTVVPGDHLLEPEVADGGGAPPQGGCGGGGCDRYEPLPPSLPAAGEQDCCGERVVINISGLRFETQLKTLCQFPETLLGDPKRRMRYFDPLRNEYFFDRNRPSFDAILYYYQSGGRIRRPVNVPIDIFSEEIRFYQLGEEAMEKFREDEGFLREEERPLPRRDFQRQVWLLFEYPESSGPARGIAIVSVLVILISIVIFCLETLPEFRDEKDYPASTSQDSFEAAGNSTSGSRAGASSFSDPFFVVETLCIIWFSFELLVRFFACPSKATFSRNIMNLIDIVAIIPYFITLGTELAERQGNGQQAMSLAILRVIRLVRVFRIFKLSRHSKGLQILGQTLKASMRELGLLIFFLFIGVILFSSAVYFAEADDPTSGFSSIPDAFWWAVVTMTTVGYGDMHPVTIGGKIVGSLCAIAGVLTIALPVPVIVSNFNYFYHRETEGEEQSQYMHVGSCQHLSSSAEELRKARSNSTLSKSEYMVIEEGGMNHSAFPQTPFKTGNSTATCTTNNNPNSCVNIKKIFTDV
# Legend:
# [1] = biological target: T1, Potassium voltage-gated channel subfamily A member 3 (Homo sapiens, UniProt P22001); parameters: species or system Blood
# [2] = biological target: T1, Potassium voltage-gated channel subfamily A member 3; assay: cell-based; parameters: species or system Blood
Structure (SMILES),IC50 [1] [nM],IC50 [2] [nM]
CC[C@H](C)[C@@H]1NC(=O)[C@@H](NC(=O)[C@H](CO)NC(=O)[C@@H](N)CCCNC(=N)N)CSSC[C@@H](C(=O)O)NC(=O)[C@H]([C@@H](C)O)NC(=O)CNC(=O)[C@@H]2CSSC[C@@H]3NC(=O)[C@H](CCC(N)=O)NC(=O)[C@H](Cc4ccccc4)NC(=O)[C@H](C)NC(=O)[C@H]([C@@H](C)O)NC(=O)[C@H](CSSC[C@H](NC(=O)[C@H](Cc4ccccc4)NC(=O)[C@H](CO)NC(=O)[C@H](CC(C)C)NC(=O)[C@H](CCCNC(=N)N)NC(=O)[C@H](Cc4ccc(O)cc4)NC(=O)[C@H](CCCCN)NC(=O)[C@H](CCSC)NC(=O)[C@H](CO)NC(=O)[C@H](CCC(=O)O)NC(=O)[C@H](CCCCN)NC3=O)C(=O)N[C@@H](CCCNC(=N)N)C(=O)N[C@@H](CCCCN)C(=O)N[C@@H]([C@@H](C)O)C(=O)N2)NC(=O)[C@H](CCCNC(=N)N)NC(=O)[C@H](CO)NC(=O)[C@H](CCCCN)NC(=O)[C@@H]2CCCN2C(=O)[C@H]([C@@H](C)CC)NC(=O)[C@H]([C@@H](C)O)NC(=O)[C@H](CC(=O)O)NC1=O,0.216,
CC[C@H](C)[C@@H]1NC(=O)[C@@H](NC(=O)[C@H](CO)NC(=O)[C@@H](N)CCCNC(=N)N)CSSC[C@@H](C(=O)O)NC(=O)[C@H]([C@@H](C)O)NC(=O)[C@H](Cc2cccc3ccccc23)NC(=O)[C@@H]2CSSC[C@@H]3NC(=O)[C@H](CCC(N)=O)NC(=O)[C@H](Cc4ccccc4)NC(=O)[C@H](C)NC(=O)[C@H]([C@@H](C)O)NC(=O)[C@H](CSSC[C@H](NC(=O)[C@H](Cc4ccccc4)NC(=O)[C@H](CO)NC(=O)[C@H](CC(C)C)NC(=O)[C@H](CCCNC(=N)N)NC(=O)[C@H](Cc4ccc(O)cc4)NC(=O)[C@H](CCCCN)NC(=O)[C@H](CCSC)NC(=O)[C@H](CO)NC(=O)[C@H](Cc4cnc[nH]4)NC(=O)[C@H](CCCCN)NC3=O)C(=O)N[C@@H](CCCNC(=N)N)C(=O)N[C@@H](CCCCN)C(=O)N[C@@H]([C@@H](C)O)C(=O)N2)NC(=O)[C@H](CCCNC(=N)N)NC(=O)[C@H](CO)NC(=O)[C@H](CCCCN)NC(=O)[C@@H]2CCCN2C(=O)[C@H]([C@@H](C)CC)NC(=O)[C@H]([C@@H](C)O)NC(=O)[C@H](CC(=O)O)NC1=O,1.43,
CC[C@H](C)[C@@H]1NC(=O)[C@@H](NC(=O)[C@H](CO)NC(=O)[C@@H](N)CCCNC(=N)N)CSSC[C@@H](C(=O)O)NC(=O)[C@H]([C@@H](C)O)NC(=O)CNC(=O)[C@@H]2CSSC[C@@H]3NC(=O)[C@H](CCC(N)=O)NC(=O)[C@H](Cc4ccccc4)NC(=O)[C@H](C)NC(=O)[C@H]([C@@H](C)O)NC(=O)[C@H](CSSC[C@H](NC(=O)[C@H](Cc4ccccc4)NC(=O)[C@H](CO)NC(=O)[C@H](CC(C)C)NC(=O)[C@H](CCCNC(=N)N)NC(=O)[C@H](Cc4ccc(O)cc4)NC(=O)[C@H](CCCCN)NC(=O)[C@H](CCSC)NC(=O)[C@H](CO)NC(=O)[C@H](Cc4cnc[nH]4)NC(=O)[C@H](CCCCN)NC3=O)C(=O)N[C@@H](CCCNC(=N)N)C(=O)N[C@@H](CCCCN)C(=O)N[C@@H]([C@@H](C)O)C(=O)N2)NC(=O)[C@H](C)NC(=O)[C@H](CO)NC(=O)[C@H](CCCCN)NC(=O)[C@@H]2CCCN2C(=O)[C@H]([C@@H](C)CC)NC(=O)[C@H]([C@@H](C)O)NC(=O)[C@H](CC(=O)O)NC1=O,2.15,0.881
CC[C@H](C)[C@@H]1NC(=O)[C@@H](NC(=O)[C@H](CO)NC(=O)[C@@H](N)CCCNC(=N)N)CSSC[C@@H](C(=O)O)NC(=O)[C@H]([C@@H](C)O)NC(=O)CNC(=O)[C@@H]2CSSC[C@@H]3NC(=O)[C@H](CCC(N)=O)NC(=O)[C@H](Cc4ccccc4)NC(=O)[C@H](C)NC(=O)[C@H](C)NC(=O)[C@H](CSSC[C@H](NC(=O)[C@H](Cc4ccccc4)NC(=O)[C@H](CO)NC(=O)[C@H](CC(C)C)NC(=O)[C@H](CCCNC(=N)N)NC(=O)[C@H](Cc4ccc(O)cc4)NC(=O)[C@H](CCCCN)NC(=O)[C@H](CCSC)NC(=O)[C@H](CO)NC(=O)[C@H](Cc4cnc[nH]4)NC(=O)[C@H](CCCCN)NC3=O)C(=O)N[C@@H](CCCNC(=N)N)C(=O)N[C@@H](CCCCN)C(=O)N[C@@H]([C@@H](C)O)C(=O)N2)NC(=O)[C@H](CCCNC(=N)N)NC(=O)[C@H](CO)NC(=O)[C@H](CCCCN)NC(=O)[C@@H]2CCCN2C(=O)[C@H]([C@@H](C)CC)NC(=O)[C@H]([C@@H](C)O)NC(=O)[C@H](CC(=O)O)NC1=O,0.795,0.391
CC[C@H](C)[C@@H]1NC(=O)[C@@H](NC(=O)[C@H](CO)NC(=O)[C@@H](N)CCCNC(=N)N)CSSC[C@@H](C(=O)O)NC(=O)[C@H]([C@@H](C)O)NC(=O)CNC(=O)[C@@H]2CSSC[C@@H]3NC(=O)[C@H](C)NC(=O)[C@H](Cc4ccccc4)NC(=O)[C@H](C)NC(=O)[C@H]([C@@H](C)O)NC(=O)[C@H](CSSC[C@H](NC(=O)[C@H](Cc4ccccc4)NC(=O)[C@H](CO)NC(=O)[C@H](CC(C)C)NC(=O)[C@H](CCCNC(=N)N)NC(=O)[C@H](Cc4ccc(O)cc4)NC(=O)[C@H](CCCCN)NC(=O)[C@H](CCSC)NC(=O)[C@H](CO)NC(=O)[C@H](Cc4cnc[nH]4)NC(=O)[C@H](CCCCN)NC3=O)C(=O)N[C@@H](CCCNC(=N)N)C(=O)N[C@@H](CCCCN)C(=O)N[C@@H]([C@@H](C)O)C(=O)N2)NC(=O)[C@H](CCCNC(=N)N)NC(=O)[C@H](CO)NC(=O)[C@H](CCCCN)NC(=O)[C@@H]2CCCN2C(=O)[C@H]([C@@H](C)CC)NC(=O)[C@H]([C@@H](C)O)NC(=O)[C@H](CC(=O)O)NC1=O,0.09,0.054
CC[C@H](C)[C@@H]1NC(=O)[C@@H](NC(=O)[C@H](CO)NC(=O)[C@@H](N)CCCNC(=N)N)CSSC[C@@H](C(=O)O)NC(=O)[C@H]([C@@H](C)O)NC(=O)CNC(=O)[C@@H]2CSSC[C@@H]3NC(=O)[C@H](CCC(N)=O)NC(=O)[C@H](Cc4ccccc4)NC(=O)[C@H](C)NC(=O)[C@H](Cc4cccc5ccccc45)NC(=O)[C@H](CSSC[C@H](NC(=O)[C@H](Cc4ccccc4)NC(=O)[C@H](CO)NC(=O)[C@H](CC(C)C)NC(=O)[C@H](CCCNC(=N)N)NC(=O)[C@H](Cc4ccc(O)cc4)NC(=O)[C@H](CCCCN)NC(=O)[C@H](CCSC)NC(=O)[C@H](CO)NC(=O)[C@H](Cc4cnc[nH]4)NC(=O)[C@H](CCCCN)NC3=O)C(=O)N[C@@H](CCCNC(=N)N)C(=O)N[C@@H](CCCCN)C(=O)N[C@@H]([C@@H](C)O)C(=O)N2)NC(=O)[C@H](CCCNC(=N)N)NC(=O)[C@H](CO)NC(=O)[C@H](CCCCN)NC(=O)[C@@H]2CCCN2C(=O)[C@H]([C@@H](C)CC)NC(=O)[C@H]([C@@H](C)O)NC(=O)[C@H](CC(=O)O)NC1=O,4.86,3.56
CC[C@H](C)[C@@H]1NC(=O)[C@@H](NC(=O)[C@H](CO)NC(=O)[C@@H](N)CCCNC(=N)N)CSSC[C@@H](C(=O)O)NC(=O)[C@H]([C@@H](C)O)NC(=O)CNC(=O)[C@@H]2CSSC[C@@H]3NC(=O)[C@H](CCC(N)=O)NC(=O)[C@H](Cc4ccccc4)NC(=O)[C@H](C)NC(=O)[C@H]([C@@H](C)O)NC(=O)[C@H](CSSC[C@H](NC(=O)[C@H](Cc4ccccc4)NC(=O)[C@H](CO)NC(=O)[C@H](CC(C)C)NC(=O)[C@H](CCCCN)NC(=O)[C@H](Cc4ccc(O)cc4)NC(=O)[C@H](CCCCN)NC(=O)[C@H](CCSC)NC(=O)[C@H](CO)NC(=O)[C@H](Cc4cnc[nH]4)NC(=O)[C@H](CCCCN)NC3=O)C(=O)N[C@@H](CCCNC(=N)N)C(=O)N[C@@H](CCCCN)C(=O)N[C@@H]([C@@H](C)O)C(=O)N2)NC(=O)[C@H](CCCNC(=N)N)NC(=O)[C@H](CO)NC(=O)[C@H](CCCCN)NC(=O)[C@@H]2CCCN2C(=O)[C@H]([C@@H](C)CC)NC(=O)[C@H]([C@@H](C)O)NC(=O)[C@H](CC(=O)O)NC1=O,,0.045
CC[C@H](C)[C@@H]1NC(=O)[C@@H](NC(=O)[C@H](CO)NC(=O)[C@@H](N)CCCNC(=N)N)CSSC[C@@H](C(=O)O)NC(=O)[C@H]([C@@H](C)O)NC(=O)[C@H](CCC(=O)O)NC(=O)[C@@H]2CSSC[C@@H]3NC(=O)[C@H](CCC(N)=O)NC(=O)[C@H](Cc4ccccc4)NC(=O)[C@H](C)NC(=O)[C@H]([C@@H](C)O)NC(=O)[C@H](CSSC[C@H](NC(=O)[C@H](Cc4ccccc4)NC(=O)[C@H](CO)NC(=O)[C@H](CC(C)C)NC(=O)[C@H](CCCNC(=N)N)NC(=O)[C@H](Cc4ccc(O)cc4)NC(=O)[C@H](CCCCN)NC(=O)[C@H](CCSC)NC(=O)[C@H](CO)NC(=O)[C@H](Cc4cnc[nH]4)NC(=O)[C@H](CCCCN)NC3=O)C(=O)N[C@@H](CCCNC(=N)N)C(=O)N[C@@H](CCCCN)C(=O)N[C@@H]([C@@H](C)O)C(=O)N2)NC(=O)[C@H](CCCNC(=N)N)NC(=O)[C@H](CO)NC(=O)[C@H](CCCCN)NC(=O)[C@@H]2CCCN2C(=O)[C@H]([C@@H](C)CC)NC(=O)[C@H]([C@@H](C)O)NC(=O)[C@H](CC(=O)O)NC1=O,,0.055
CC[C@H](C)[C@@H]1NC(=O)[C@@H](NC(=O)[C@H](CO)NC(=O)[C@@H](N)CCCNC(=N)N)CSSC[C@@H](C(=O)O)NC(=O)[C@H]([C@@H](C)O)NC(=O)CNC(=O)[C@@H]2CSSC[C@@H]3NC(=O)[C@H](CCC(N)=O)NC(=O)[C@H](Cc4ccccc4)NC(=O)[C@H](C)NC(=O)[C@H]([C@@H](C)O)NC(=O)[C@H](CSSC[C@H](NC(=O)[C@H](Cc4ccccc4)NC(=O)[C@H](CO)NC(=O)[C@H](CC(C)C)NC(=O)[C@H](CCC(=O)O)NC(=O)[C@H](Cc4ccc(O)cc4)NC(=O)[C@H](CCCCN)NC(=O)[C@H](CCSC)NC(=O)[C@H](CO)NC(=O)[C@H](Cc4cnc[nH]4)NC(=O)[C@H](CCCCN)NC3=O)C(=O)N[C@@H](CCCNC(=N)N)C(=O)N[C@@H](CCCCN)C(=O)N[C@@H]([C@@H](C)O)C(=O)N2)NC(=O)[C@H](CCCNC(=N)N)NC(=O)[C@H](CO)NC(=O)[C@H](CCCCN)NC(=O)[C@@H]2CCCN2C(=O)[C@H]([C@@H](C)CC)NC(=O)[C@H]([C@@H](C)O)NC(=O)[C@H](CC(=O)O)NC1=O,4.07,1.11
